Values quoted from earlier work in US20100279974A1, “Nucleosides With Non-Natural Bases as Anti-Viral Agents” (priority 2005, published 2010).

Tested on: HCV
Conditions: human, in vivo

NC(=O)c1ncn([C@@H]2O[C@H](CO)[C@@H](O)[C@H]2O)n1 [Ribavirin, 1-β-D-ribofuranosyl-1-1,2,4-triazole-3-carboxamide]
toxicity: known to induce anemia
